The source of these data is PubChem BioAssay AID743397 (Broad Institute, 2014).

The structures appear in SMILES notation. This is a selection; strong and weak results do not stand in their true shares. The source made the active and inactive calls.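 How the source made its calls: active means mean replicate inhibition of at least 30% and at least 1% of replicates passing that level; inconclusive means only one of the two criteria is met; inactive means neither criterion is met.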

This experiment has as its system Voltage-dependent L-type calcium channel subunit alpha-1D (CaV1.3) ICDI/IQ interaction. The experiment is described as follows: Primary screen for inhibitors of IQ motif and Ca2+-dependent inactivation inhibitor domain binding in CACNA1D, Förster resonance energy transfer in living cells, single-concentration test (AID 743397).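 Further: 0% = median of the neutral control wells.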 The following applies: HEK cells, CFP/YFP FRET ICDI-IQ, plate reader, 10 min; at 12.3 µM; stronger effect = higher value; percent FRET-ratio fall versus neutral wells.
In the case of `C/C(N)=N\P(=O)(OCc1ccccc1)OCc1ccccc1`, the inhibition is inactive: -4.93%.

Consider `Nc1ccc([As](=O)(O)c2ccc([N+](=O)[O-])cc2)cc1`, for which the inhibition is inactive: -4.66%.

For the molecule `C(Cc1nn[nH]n1)Cc1nn[nH]n1`, the inhibition is inactive: -2.74%.

As to `CN(C)C1(CNC(=O)c2ccc(Cl)c(S(N)(=O)=O)c2)CCCCC1`, the inhibition is inactive: -4.5%.

Consider `O=P(Nc1ccccn1)(c1ccc(Br)cc1)c1ccc(Br)cc1`, for which the inhibition is inactive: -4.48%.

As to `Nc1ccc(CCCCOc2ccccc2)cc1`, the inhibition was inactive: -4.74%.

As to `COc1ccc(N)c([N+](=O)[O-])c1[N+](=O)[O-]`, the inhibition is inactive: -5.73%.

Take `O=P(Nc1nc2ccccc2s1)(c1ccccc1)c1ccccc1`: the inhibition is inactive: -1.92%.

As for `O=P(Nc1nccs1)(c1ccccc1)c1ccccc1`, the inhibition was inactive: -3.03%.

Take `CC(C)C(=O)NC(Sc1ccccc1)C(Cl)(Cl)Cl` (configuration not stated): the inhibition was inactive: -4.54%.

Turning to `c1nnnn1CCn1cnnn1`, the inhibition was inactive: -3.72%.

Regarding `CCN(/C(=N/P(=O)(N1CCOCC1)N1CCOCC1)N1CCOCC1)c1ccc(OC)cc1`, the inhibition was inactive: 0.073%.

Take `Nc1ccc([As](=O)(O)c2ccc(N)cc2)cc1`: the inhibition is inactive: 3.16%.

`C[N+]1=C2C=CC=CC=C2SC12C([N+](=O)[O-])=CC([N+](=O)[O-])=C[C-]2[N+](=O)[O-]` (configuration not stated): the inhibition was inactive: -20.6%.

With `c1cc(-c2nn[nH]n2)ccc1-c1nn[nH]n1`, the inhibition was inactive: -4.58%.

Regarding `CC1CCN(C(=O)Oc2c(Cl)cc(Cl)c3cccnc23)CC1`, the inhibition was inactive: -5.3%.

Regarding `CC(C)=N/N=C(\N)N[N+](=O)[O-]`, the inhibition was inactive: -4.22%.

Turning to `CC(C)c1nc(Nc2ccccc2)n(P(=O)(N(C)C)N(C)C)n1`, the inhibition was inactive: -10.7%.

With `CN(C)C(=O)OCCc1n(C)cc[n+]1C`, the inhibition was inactive: -6.8%.

As to `COc1ccc(C2=NCC(CBr)S2)cc1` (configuration not stated), the inhibition was inactive: 2.24%.

Regarding `Cc1ccc(NP(=O)(Oc2ccccc2)Oc2ccccc2)nc1`, the inhibition was inactive: 2.57%.

Regarding `O=[N+]([O-])c1cc([N+](=O)[O-])c(CCNc2ccccc2)c([N+](=O)[O-])c1`, the inhibition was inactive: -2.06%.

Turning to `CCc1nc2c(n1)c1c(non1O)c1c2no[n+]1[O-]`, the inhibition was inactive: -7.54%.

Regarding `O=[N+]([O-])c1cccc2n[nH]nc12`, the inhibition is inactive: -4.99%.

`O=[N+]([O-])c1ncn(CCn2ncnc2[N+](=O)[O-])n1`: the inhibition was inactive: -4.95%.

As for `CC(C)(C)C(=O)NC(Sc1ccncn1)C(Cl)(Cl)Cl` (configuration not stated), the inhibition was inactive: 1.28%.

Consider `O=C(O)CNc1ccc([As](=O)(O)O)cc1`, for which the inhibition is inactive: -19.5%.

As to `O=[N+]([O-])c1cccc(NC2=NCC(CBr)S2)c1` (configuration not stated), the inhibition is inactive: -14.7%.

For the molecule `COC(=O)C1(C)COP(=O)(Nc2ccccc2)OC1` (configuration not stated), the inhibition was inactive: -6.75%.

For the molecule `O=P1(N(CCCl)CCCl)OCCCS1` (configuration not stated), the inhibition was inactive: -10.4%.

Turning to `O=C(Nc1cc([As](=O)(O)O)ccc1O)c1ccccc1`, the inhibition is inactive: -12.3%.

Take `Nc1cccc2ccc([As](=O)(O)O)cc12`: the inhibition was inactive: -3.96%.

Take `CCN(N=Nc1nonc1N)c1nonc1N`: the inhibition is inactive: -1.85%.

Turning to `CN(C)P(=O)(N(C)C)n1c(Nc2ccccc2)nnc1-c1ccccc1`, the inhibition is inactive: -6.02%.

Consider `O=P(Nc1nc2ccc(Cl)cc2s1)(c1ccccc1)c1ccccc1`, for which the inhibition is inactive: 4.88%.

As to `O=C(O)c1ccccc1[As](=O)(O)O`, the inhibition is inactive: -17.6%.

`CC(=O)Nc1ccc([As](=O)(O)O)cc1`: the inhibition is inactive: -10.8%.

As for `CCCC1OP(N)(=O)OCC1CC` (configuration not stated), the inhibition is inactive: -4.97%.

For the molecule `Cc1cc(SC(NC(=O)c2ccc(F)cc2)C(Cl)(Cl)Cl)ncn1` (configuration not stated), the inhibition was inactive: -6.24%.

Consider `CN(C(=O)Cc1ccc(Cl)c(Cl)c1)[C@H]1CCCC[C@@H]1N1CCCC1`, for which the inhibition is inactive: -4.79%.

Regarding `Cc1ccc(NP(=O)(Oc2ccccc2F)Oc2ccccc2F)nc1`, the inhibition is inactive: -7.41%.

Regarding `Oc1ccccc1CNc1ccccn1`, the inhibition was inactive: -8.17%.

With `O=C(NC(Sc1ccncn1)C(Cl)(Cl)Cl)c1ccccc1` (configuration not stated), the inhibition is inactive: -3.46%.

With `CC(C)CC(=O)NC(Sc1ccc(Cl)cc1)C(Cl)(Cl)Cl` (configuration not stated), the inhibition is inactive: -3.2%.

Turning to `Nc1cc(N)c2nonc2c1[N+](=O)[O-]`, the inhibition is inactive: -4.34%.

As for `CN(C(=O)Cc1ccc(Cl)c(Cl)c1)[C@H]1CCCC[C@H]1N1CCCC1`, the inhibition was inactive: -5.05%.

`Cc1ccc(N/C(=N/P(=O)(N2CCOCC2)N2CCOCC2)N2CCOCC2)cc1`: the inhibition was inactive: 1.3%.

Consider `NC(=O)c1cc([N+](=O)[O-])cc([N+](=O)[O-])c1N`, for which the inhibition was inactive: -2.4%.

As to `Clc1ccc(Cl)c(NC2=NCC(CBr)S2)c1` (configuration not stated), the inhibition is inactive: -2.87%.

As for `COc1ccccc1OP(=O)(Nc1ccc(C)cn1)Oc1ccccc1OC`, the inhibition was inactive: -6.6%.

Regarding `Cc1ccc(OP(=O)(Nc2nccs2)Oc2ccc(C)cc2)cc1`, the inhibition was inactive: -3.71%.

`O=[N+]([O-])c1cc(Oc2ccc([N+](=O)[O-])cc2C(F)(F)F)cc([N+](=O)[O-])c1`: the inhibition is inactive: -2.36%.

`COc1ccc(N/C(=N/P(=O)(N2CCOCC2)N2CCOCC2)N2CCOCC2)cc1`: the inhibition is inactive: 3.56%.

As for `Cc1c2c(nc3ccccc13)SC(C(Cl)Cl)C2` (configuration not stated), the inhibition was inactive: -13.4%.

As for `Cc1cc(=O)[nH]c(N[N+](=O)[O-])n1`, the inhibition was inactive: -1.99%.

On to `O=P1(N(CCCl)CCCl)OCCCN1CCCl` (configuration not stated), for which the inhibition is inactive: -6.59%.

As for `O=P1(N(CCCl)CCCl)Nc2ccccc2N1`, the inhibition was inactive: -7.1%.

In the case of `COc1ccc2nc(NP(=O)(c3ccccc3)c3ccccc3)sc2c1`, the inhibition is inactive: -4.08%.

For `COc1cc(I)ccc1[As](=O)(O)O`, the inhibition is inactive: -6.73%.

On to `ClCCSc1nnc(-c2cccnc2)o1`, for which the inhibition was inactive: -4.09%.

For the molecule `CC(C)c1ccc(OP(=O)(Nc2ccccn2)Oc2ccccc2F)cc1` (configuration not stated), the inhibition was inactive: -13.1%.

Regarding `COC(=O)C1(C)COP(=O)(N2CCCCCC2)OC1` (configuration not stated), the inhibition is inactive: -6.62%.

For `O=C(OC1CN2CCC1CC2)c1cccc2[nH]cnc12` (configuration not stated), the inhibition was inactive: -9%.

For the molecule `CC(C)NC(=O)NP(=O)(Oc1ccccc1)Oc1ccccc1`, the inhibition was inactive: -4.81%.

In the case of `O=[As](O)(c1ccc(O)cc1)c1ccccc1O`, the inhibition was inactive: -5.1%.

As for `C[As](=O)(O)c1cccc(C(=O)O)c1`, the inhibition was inactive: -18.4%.

As for `COc1cc(C(=O)NCC2(N3CCOCC3)CCCCC2)ccc1OCC(C)C`, the inhibition is inactive: 2.47%.

By inhibition is commonly meant the drop in the measured response relative to a control, in per cent.
